The list shows a part of the results, in another mix than the full data. Records with an inconclusive call do not appear. Calls of active or inactive are those of the source. The call rests on the fitted dose curve; in most records, active means well fitted inhibition curve with a large enough effect; inconclusive means small, poorly fitted or top-dose-only effect, or another doubt; inactive means no such curve, though single readings can be large or run the other way.
On the % scale 0 is the no-effect control and ±100 the full control effect.

Protein sequences, listed by entry. Tags and fused reporters are not part of them.
UniProt P18054, whole entry: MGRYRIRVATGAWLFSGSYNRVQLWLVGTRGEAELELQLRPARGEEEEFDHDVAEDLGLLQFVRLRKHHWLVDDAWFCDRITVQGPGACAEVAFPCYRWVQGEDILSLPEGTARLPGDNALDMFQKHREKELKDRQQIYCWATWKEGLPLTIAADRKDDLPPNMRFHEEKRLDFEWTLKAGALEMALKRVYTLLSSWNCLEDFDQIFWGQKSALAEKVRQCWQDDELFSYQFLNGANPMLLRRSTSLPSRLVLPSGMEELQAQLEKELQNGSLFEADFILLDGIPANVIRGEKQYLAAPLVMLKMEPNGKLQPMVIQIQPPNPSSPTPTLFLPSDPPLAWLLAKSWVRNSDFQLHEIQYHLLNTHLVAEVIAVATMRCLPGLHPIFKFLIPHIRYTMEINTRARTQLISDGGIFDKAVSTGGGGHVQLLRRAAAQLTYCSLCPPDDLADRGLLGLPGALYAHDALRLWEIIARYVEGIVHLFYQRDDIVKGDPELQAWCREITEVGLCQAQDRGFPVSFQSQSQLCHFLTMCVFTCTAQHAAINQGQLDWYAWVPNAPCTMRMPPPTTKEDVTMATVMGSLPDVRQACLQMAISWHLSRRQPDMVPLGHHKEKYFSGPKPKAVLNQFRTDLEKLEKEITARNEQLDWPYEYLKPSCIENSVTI

For this test, the target named is Polyunsaturated fatty acid lipoxygenase ALOX12 (Homo sapiens) (UniProt P18054). Briefly: Primary qHTS assay for inhibitors of human arachidonate 12S-lipoxygenase (ALOX12): Round 2. Particulars: purified 12hLO, xylenol orange hydroperoxide absorbance; series mostly up to 108 µM; activity change, negative = inhibition: at the top concentration. The text has this: Assay Provider: Theodore R. Holman Ph.D. University of California, Santa Cruz, California Human lipoxygenase 12hLO is a member of the closely related lipoxygenase family of enzymes which catalyze the site-specific oxidation of arachidonic acid to various hormone precursor molecules and as such is a candidate for drug development in a variety of disease areas, such as cancer and inflammation. Inhibition of 12hLO activity was screened by utilizing arachidonic acid as a substrate. The extent of hydroperoxide product formation was measured by a secondary chromogenic reaction in which xylenol orange (XO, Sigma-Aldrich, cat. number 39,818-7) reacts with the ferric ions produced from the reaction between the hydroperoxide and ferrous ions. The Fe (III)-XO complex is characterized with red-shifted absorbance at 560 nm. A purified preparation of human 12hLO was supplied by Dr. Holman laboratory, University of California, Santa Cruz.
PROTOCOL TABLE SEQUENCE No. (e.g., 1, 2, 3, etc.); […] (e.g., Cells, Incubation, Reagent, etc.); VALUE; DESCRIPTION 1; Enzyme; 3 uL; 150 nM 12hLO enzyme solution dispensed in 1536-well Greiner black, clear bottom plates. 2; Compound; 23 nL; compounds and controls were added. 3; Incubate; 15 min; room temperature. 4; Substrate; 1 uL; 40 uM arachidonic acid (final concentration). 5; Incubate; 30 min; room temperature. 6; Reagent; 4 uL; Fe-XO solution was added to each well. 7; Incubation; 30 min; room temperature 8; Detector; absorbance; Read 1 at 405 nm absorbance using ViewLux (Perkin-Elmer) CCD imager. 9; Detector; absorbance; Read 2 at 573 nm absorbance using ViewLux (Perkin-Elmer) CCD imager. NOTES (numbers refer to sequence above) 1; 150 nM 12hLO (final concentration) in buffer solution (25 mM Hepes, 0.01% Triton X-100, pH 7.0) was dispensed in columns 1, 2, 5-48. Column 1 is neutral (100% activity). Buffer only was dispensed in columns 3 and 4 as no enzyme negative controls. The plates were covered with metal lids with gas-exchange holes. 2; Compounds were pin transferred via a Kalypsys Pin Tool (Wako USA) in column 5-48. Control compound was transferred in column 2, titration of nordihydroguaiaretic acid (NDGA, Sigma-Aldrich, N5023) with top concentration of 20 mM in DMSO then 1:3 dilution in duplicate. Dilution factor of 23 nL into 4 uL final assay volume. 3; Covered assay plates were incubated for 15 min at room temperature. 4; Substrate was added to start the reaction; 40 uM arachidonic acid (Sigma-Aldrich, St. Louis, MO) was dispensed throughout the plate. 6; Chromogenic detection reagent solution (divalent iron/xylenol orange, Fe-XO) was added to each well: 200 uM xylenol orange, 300 uM ferrous ammonium sulfate prepared freshly in 50 mM sulfuric acid. 8, 9; Two absorbance readouts were obtained at 405 nm and at 573 nm using a ViewLux high-throughput CCD plate imager (Perkin-Elmer). The 573 to 405 (Read 2 / Read 1) absorbance ratio was used to compute reaction progress.
On the technique in general: qHTS replaces the single test concentration by a dilution series.
Regarding `O=P1(N(CCCl)CCCl)SCCCS1`, the “activity change, negative = inhibition” value was inactive: 9.38%.

Consider `CCCCOc1ccc(C(=O)NCC2(N3CCOCC3)CCCCC2)cc1`, for which the “activity change, negative = inhibition” value is inactive: 4.59%.

With `CN(C)C1(CNC(=O)c2nn(C)c(=O)c3ccccc23)CCCCC1`, the “activity change, negative = inhibition” value is inactive: -21.2%.

`O=C1CCN(Cc2ccccc2)CC1`: the “activity change, negative = inhibition” value is inactive: 1.89%.

Regarding `CC(C)(C)n1nnnc1C(c1ccccc1)N1CCC(n2c(=O)[nH]c3ccccc32)CC1` (stereo unspecified), the “activity change, negative = inhibition” value was inactive: -7.65%.

Regarding `CCCCn1nnnc1C(c1ccc(OC)cc1)N1CCC(n2c(=O)[nH]c3ccccc32)CC1` (stereo unspecified), the “activity change, negative = inhibition” value was inactive: -7.24%.

For `CCOC(=O)N1CCC(Nc2ccc(OC)cc2)CC1`, the “activity change, negative = inhibition” value was inactive: -8.24%.

For the molecule `COc1ccc(Cl)cc1C(=O)NCC1(N2CCOCC2)CCCCC1`, the “activity change, negative = inhibition” value was inactive: -6.13%.

With `O=C(OC1CN2CCC1CC2)C1c2ccccc2Oc2ccccc21` (stereo unspecified), the “activity change, negative = inhibition” value is inactive: 7.45%.

For the molecule `CC1CN(CCc2ccccc2)CCC1=O` (stereo unspecified), the “activity change, negative = inhibition” value was inactive: -29%.

Consider `O=c1[nH]c2ccccc2n1C1CCN(C(c2cc3ccccc3o2)c2nnnn2C2CCCCC2)CC1` (stereo unspecified), for which the “activity change, negative = inhibition” value is inactive: -13.8%.

`O=C(NCC1(N2CCCCC2)CCCCC1)c1ccc(Cl)s1`: the “activity change, negative = inhibition” value is inactive: 108%.

With `N#CC1(Nc2ccccc2)CCN(Cc2ccccc2)CC1`, the “activity change, negative = inhibition” value is inactive: 0%.

For `O=C(NCC1(N2CCOCC2)CCCCC1)c1cc2ccccc2o1`, the “activity change, negative = inhibition” value was inactive: 0%.

Turning to `Cc1cc(C)cc(N(C(=O)c2ccccc2)C2CCN(C(=O)OC(C)(C)C)CC2)c1`, the “activity change, negative = inhibition” value is inactive: 2.26%.

With `O=c1[nH]c2ccccc2n1C1CCN(C(c2ccccc2OC(F)(F)F)c2nnnn2C2CCCCC2)CC1` (stereo unspecified), the “activity change, negative = inhibition” value is inactive: -21.5%.

In the case of `O=C(NCC1(N2CCCCC2)CCCCC1)c1ccc(Cl)nc1`, the “activity change, negative = inhibition” value is inactive: 25.6%.

Regarding `CCOC(=O)N1CCC(=O)CC1`, the activity change, negative = inhibition was inactive: -3.12% [at 22.9 µM].

With `Cc1cccc(NC2(C#N)CCN(Cc3ccccc3)CC2)c1`, the “activity change, negative = inhibition” value is inactive: -28.3%.

Consider `CSc1ccccc1C(=O)NCC1(N2CCCCC2)CCCCC1`, for which the “activity change, negative = inhibition” value was inactive: 35%.

With `CCCCn1nnnc1C(c1cccs1)N1CCC(n2c(=O)[nH]c3ccccc32)CC1` (stereo unspecified), the “activity change, negative = inhibition” value was inactive: -22.6%.

For the molecule `CCCCn1nnnc1C(CC)N1CCC(n2c(=O)[nH]c3ccccc32)CC1` (stereo unspecified), the “activity change, negative = inhibition” value is inactive: 4.98%.

As for `O=C(NCC1(N2CCCCC2)CCCCC1)c1cccs1`, the “activity change, negative = inhibition” value is inactive: -4.23%.

As to `O=C(NCC1(N2CCCCC2)CCCCC1)c1ccc(=O)[nH]c1`, the “activity change, negative = inhibition” value was inactive: 2.36%.

As for `CCC(c1nnnn1C1CCCC1)N1CCC(n2c(=O)[nH]c3ccccc32)CC1` (stereo unspecified), the “activity change, negative = inhibition” value is inactive: -20.6%.

With `COc1ccc(C(=O)NCC2(N3CCCCC3)CCCCC2)c(OC)c1OC`, the “activity change, negative = inhibition” value is inactive: 0%.

As to `CC(C)(C)OC(=O)N1CCC(N(C(=O)c2ccccc2)c2ccc(F)cc2)CC1`, the “activity change, negative = inhibition” value was inactive: 7.86%.

On to `COc1ccc(C(=O)NCC2(N3CCCCC3)CCCCC2)cc1`, for which the “activity change, negative = inhibition” value is inactive: -3.63%.

With `CCCOc1ccc(C(=O)NCC2(N(C)C)CCCCC2)cc1OC`, the “activity change, negative = inhibition” value is inactive: 0%.

Consider `O=C(NCC1(N2CCOCC2)CCCCC1)c1ccccc1Br`, for which the “activity change, negative = inhibition” value was inactive: -24.5%.

With `Cc1ccc(C(=O)NCC2(N(C)C)CCCCC2)o1`, the “activity change, negative = inhibition” value is inactive: -0.997%.

As for `CCCCOc1ccccc1C(=O)NCC1(N2CCOCC2)CCCCC1`, the “activity change, negative = inhibition” value was inactive: -29.9%.

On to `O=C(NCC1(N2CCOCC2)CCCCC1)c1c[nH]c2ccccc12`, for which the “activity change, negative = inhibition” value is inactive: -25.5%.

On to `O=C(NCC1(N2CCCCC2)CCCCC1)c1cncc(Br)c1`, for which the “activity change, negative = inhibition” value is inactive: 48.8%.

With `CN1CCC(Nc2cccc(F)c2)CC1`, the “activity change, negative = inhibition” value is inactive: -8.1%.

Consider `COc1ccccc1C(=O)NCC1(N(C)C)CCCCC1`, for which the “activity change, negative = inhibition” value was inactive: 15.4%.

`O=C(OC1CN2CCC1CC2)c1ccc([N+](=O)[O-])cc1` (stereo unspecified): the “activity change, negative = inhibition” value is inactive: 11.6%.

On to `O=C(NCC1(N2CCOCC2)CCCCC1)c1cc(F)c(F)cc1Cl`, for which the “activity change, negative = inhibition” value is inactive: -21.4%.

Turning to `CCC(c1nnnn1C(C)(C)C)N1CCC(n2c(=O)[nH]c3ccccc32)CC1` (stereo unspecified), the “activity change, negative = inhibition” value is inactive: -8.61%.

On to `CCN(CC)CCCNc1ccccc1[N+](=O)[O-].O=[N+]([O-])c1cc([N+](=O)[O-])c(O)c([N+](=O)[O-])c1`, for which the “activity change, negative = inhibition” value was inactive: -73.6%.

For `CN(C)c1cccc(C(=O)NCC2(N3CCCCC3)CCCCC2)c1`, the “activity change, negative = inhibition” value is inactive: 12.3%.

With `COc1ccc(CN(CCCl)CCCl)cc1Cl`, the “activity change, negative = inhibition” value was inactive: 28.9%.

Turning to `CC(C)c1ccc(NC2CCN(C(=O)OC(C)(C)C)CC2)cc1`, the “activity change, negative = inhibition” value is inactive: -11.4%.

Consider `COc1ccc(NC2CCN(C(=O)OC(C)(C)C)CC2)cc1`, for which the “activity change, negative = inhibition” value is inactive: 6.93%.

As to `CC(C)c1ccc(C(=O)NCC2(N3CCOCC3)CCCCC2)cc1`, the “activity change, negative = inhibition” value was inactive: -15.3%.

Take `CCc1cc(C(=O)NCC2(N3CCOCC3)CCCCC2)sc1C`: the “activity change, negative = inhibition” value is inactive: 6.23%.

`COc1cc(C(=O)NCC2(N3CCCCC3)CCCCC2)ccc1OC(F)F`: the “activity change, negative = inhibition” value is inactive: -12.7%.

In the case of `O=C(NCC1(N2CCOCC2)CCCCC1)c1cc(=O)[nH]c2ccccc12`, the “activity change, negative = inhibition” value was inactive: 109%.

As for `O=C(NCC1(N2CCCCC2)CCCCC1)c1cccc(C(F)(F)F)c1`, the “activity change, negative = inhibition” value is inactive: -16.1%.

Consider `O=[N+]([O-])c1cc([N+](=O)[O-])c(NCC2CCS(=O)(=O)C2)c([N+](=O)[O-])c1` (stereo unspecified), for which the “activity change, negative = inhibition” value is inactive: -16.1%.

On to `O=C(NCC1(N2CCCCC2)CCCCC1)c1cccc([N+](=O)[O-])c1`, for which the “activity change, negative = inhibition” value is inactive: 0%.

`CCOc1ccc(C(=O)NCC2(N3CCOCC3)CCCCC2)cc1`: the “activity change, negative = inhibition” value is inactive: -17.5%.

On to `CSc1ccc(C(=O)NCC2(N3CCOCC3)CCCCC2)cc1`, for which the “activity change, negative = inhibition” value is inactive: -21.6%.

Regarding `N#CC1(Nc2ccccc2)CCN(CCc2ccccc2)CC1`, the “activity change, negative = inhibition” value was inactive: 0%.

For `O=c1[nH]c2ccccc2n1C1CCN(C(c2ccccc2OC(F)(F)F)c2nnnn2C2CCCC2)CC1` (stereo unspecified), the “activity change, negative = inhibition” value is inactive: 0.524%.

`O=C(NCC1(N2CCCCC2)CCCCC1)c1ccc(OC(F)F)cc1`: the “activity change, negative = inhibition” value was inactive: 13.4%.

These data come from PubChem BioAssay AID1671190 (National Center for Advancing Translational Sciences (NCATS), 2021).
